# Reported properties for industrial, environmental and drug-like chemicals

Source: data files of OPERA 2.9 (Mansouri et al.), github.com/kmansouri/OPERA.

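OPERA's authors assembled the values from existing databases and did not measure them anew. One number stands for a compound and property, with no spread given. Method, purity and exact conditions of the single measurements are not given. A value may pool stereoisomers or salt forms, and the file does not say which form was measured. Some entries may be limits or estimates that an upstream database listed as plain numbers.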

The melting point is given in degrees Celsius. Boiling points are in °C, nominally at 760 mmHg. The octanol-water partition coefficient is given as log10; larger values mean a more lipophilic compound. Solubility in water is on a log10 molar scale (set defined at 25 °C). Vapor pressure is log10 of mmHg; the set covers 15 to 30 °C, mostly 20 to 25 °C. Henry's law constant (air-water partitioning) is log10 of atm·m3/mol, nominally at 25 °C. fu is the fraction unbound in human plasma, from 0 to 1. Intrinsic clearance (human, µL/min per 10^6 hepatocytes): higher is faster turnover, and 0 stands for none detected. Cells with "–" have no entry in this list.

| mp (°C) | bp (°C) | logP | log S (log10 mol/L) | log VP (log10 mmHg) | log Henry constant (log10 atm·m3/mol) | fraction unbound | Clint (µL/min/10^6 cells) | SMILES | name |
|---|---|---|---|---|---|---|---|---|---|
| -24.5 | – | – | -7.18 | – | – | – | – | CC(C)CCCCCCCCCCOC(=O)c1ccc(C(=O)OCCCCCCCCCCC(C)C)c(C(=O)OCCCCCCCCCCC(C)C)c1 | 1,2,4-Benzenetricarboxylic acid, triisotridecyl ester |
| 224.9 | – | 1.9 | – | -5.732 | – | – | – | Cc1nc2c(O)cccn2c(=O)c1CCCl.Cl | – |
| – | – | 3.49 | -6.811 | – | – | – | – | c1ccc2sc(SN3CCOCC3)nc2c1 | N-Oxydiethylene-2-benzothiazylsulfenamide |
| 260 | – | 0.845 | – | – | – | – | – | Cc1ccc(S(=O)(=O)Nc2ccc(C)c(Nc3cc(S(=O)(=O)[O-])c(N)c4c3C(=O)c3ccccc3C4=O)c2)cc1.[Na+] | – |
| – | – | 3.34 | -3.235 | -2.25 | – | – | – | CC(CC(C)(C)C#N)c1ccccc1 (configuration not stated) | 2,2-Dimethyl-4-phenylpentanenitrile |
| – | – | – | -5.426 | -5.423 | – | – | – | COc1ccc(C(OC[C@H]2O[C@@H](n3cnc4c(=O)nc(NC(=O)C(C)C)[nH]c43)C[C@@H]2O)(c2ccccc2)c2ccc(OC)cc2)cc1 | – |
| – | 481 | – | – | – | – | 0.01059 | – | c1ccc2c(c1)-c1cccc3c1c-2cc1ccccc13 | Benzo(b)fluoranthene |
| – | – | – | – | -3.156 | -5.783 | – | – | CCC(C)N(C(=O)SCc1ccccc1)C(C)CC (configuration not stated) | Tiocarbazil |
| – | – | – | – | – | – | 0.1187 | 11.73 | CCc1cccc2cc(C(O)CNC(C)(C)C)oc12 (configuration not stated) | Bufuralol |
| – | – | -3 | -1.751 | – | – | – | – | CCN[C@@H]1C[C@H](N)[C@@H](O[C@H]2OC(CN)=CC[C@H]2N)[C@H](O)[C@H]1O[C@H]1OC[C@](C)(O)[C@H](NC)[C@H]1O | Netilmicin |
| 218.1 | – | 6.1 | -8.221 | – | – | – | – | COCCCNc1nc(NCCCOC)c(N=Nc2sc(C(=O)OC)c(C)c2C#N)c(C)c1C#N | – |
| 36 | – | 2.55 | – | -2.381 | – | – | – | CCC(C)C(=O)N(C)c1ccccc1 (configuration not stated) | Butanamide, N,2-dimethyl-N-phenyl- |
| 256 | – | – | -4.121 | -7.213 | – | – | – | O=P1(Cc2ccccc2)OCC2(CO1)COP(=O)(Cc1ccccc1)OC2 (configuration not stated) | – |
| 82.23 | – | 1.43 | -1.786 | – | – | – | – | COc1cc(CC(C(C)=O)C(C)=O)ccc1O | 2,4-Pentanedione, 3-vanillyl- |
| – | – | 0.4 | -1.991 | – | – | – | – | CNC(=O)[C@@H](NC(=O)[C@H](CC(C)C)[C@H](O)C(=O)NO)C(C)(C)C | Marimastat |
| 360.8 | – | 3.81 | -7.056 | – | – | – | – | O=c1nc(-c2cc(Cl)cc(Cl)c2O)[nH]c2ccccc12 | 2-(3,5-Dichloro-2-hydroxyphenyl)-4(1H)-quinazolinone |
| – | – | – | -5.458 | -6.87 | – | – | – | CN(C)c1ccc(C(c2ccc(N(C)C)cc2)c2ccc(N(C)C)cc2)cc1 | Leucogentian violet |
| – | – | 2.23 | -1.63 | 0.272 | – | – | – | COC(Cc1ccccc1)OC | Phenylacetaldehyde dimethyl acetal |
| 70 | – | – | – | -9.774 | – | – | – | CCCC[C@H]1CO[C@H](c2ccc(-c3cc(F)c(C(F)(F)Oc4cc(F)c(F)c(F)c4)c(F)c3)c(F)c2)OC1 | – |
| 80.2 | – | – | -5.607 | -4.696 | – | – | – | CCCC1CCC(C2CCC(c3ccc(OCC)c(F)c3F)CC2)CC1 (configuration not stated) | – |

Extract of 2 entries:

| SMILES | name | mp (°C) | bp (°C) | logP | log S (log10 mol/L) | log VP (log10 mmHg) | log Henry constant (log10 atm·m3/mol) | fraction unbound | Clint (µL/min/10^6 cells) |
|---|---|---|---|---|---|---|---|---|---|
| c1ccc2c(c1)-c1cccc3c1c-2cc1ccccc13 | Benzo(b)fluoranthene | – | 481 | – | – | – | – | 0.01059 | – |
| CC(CC(C)(C)C#N)c1ccccc1 (configuration not stated) | 2,2-Dimethyl-4-phenylpentanenitrile | – | – | 3.34 | -3.235 | -2.25 | – | – | – |